These are literature values, as cited in patent publication US20030022247A1, “Substance which inhibits binding of information transfer molecule for 1175-tyrosine phosphorylated KDR/FLK-1 and usages of the same” (priority 2000, published 2003).

By UniProt entry, the sequences of proteins in these tests, tags left out. Residues count along the entry.
UniProt P35968, 20-1356: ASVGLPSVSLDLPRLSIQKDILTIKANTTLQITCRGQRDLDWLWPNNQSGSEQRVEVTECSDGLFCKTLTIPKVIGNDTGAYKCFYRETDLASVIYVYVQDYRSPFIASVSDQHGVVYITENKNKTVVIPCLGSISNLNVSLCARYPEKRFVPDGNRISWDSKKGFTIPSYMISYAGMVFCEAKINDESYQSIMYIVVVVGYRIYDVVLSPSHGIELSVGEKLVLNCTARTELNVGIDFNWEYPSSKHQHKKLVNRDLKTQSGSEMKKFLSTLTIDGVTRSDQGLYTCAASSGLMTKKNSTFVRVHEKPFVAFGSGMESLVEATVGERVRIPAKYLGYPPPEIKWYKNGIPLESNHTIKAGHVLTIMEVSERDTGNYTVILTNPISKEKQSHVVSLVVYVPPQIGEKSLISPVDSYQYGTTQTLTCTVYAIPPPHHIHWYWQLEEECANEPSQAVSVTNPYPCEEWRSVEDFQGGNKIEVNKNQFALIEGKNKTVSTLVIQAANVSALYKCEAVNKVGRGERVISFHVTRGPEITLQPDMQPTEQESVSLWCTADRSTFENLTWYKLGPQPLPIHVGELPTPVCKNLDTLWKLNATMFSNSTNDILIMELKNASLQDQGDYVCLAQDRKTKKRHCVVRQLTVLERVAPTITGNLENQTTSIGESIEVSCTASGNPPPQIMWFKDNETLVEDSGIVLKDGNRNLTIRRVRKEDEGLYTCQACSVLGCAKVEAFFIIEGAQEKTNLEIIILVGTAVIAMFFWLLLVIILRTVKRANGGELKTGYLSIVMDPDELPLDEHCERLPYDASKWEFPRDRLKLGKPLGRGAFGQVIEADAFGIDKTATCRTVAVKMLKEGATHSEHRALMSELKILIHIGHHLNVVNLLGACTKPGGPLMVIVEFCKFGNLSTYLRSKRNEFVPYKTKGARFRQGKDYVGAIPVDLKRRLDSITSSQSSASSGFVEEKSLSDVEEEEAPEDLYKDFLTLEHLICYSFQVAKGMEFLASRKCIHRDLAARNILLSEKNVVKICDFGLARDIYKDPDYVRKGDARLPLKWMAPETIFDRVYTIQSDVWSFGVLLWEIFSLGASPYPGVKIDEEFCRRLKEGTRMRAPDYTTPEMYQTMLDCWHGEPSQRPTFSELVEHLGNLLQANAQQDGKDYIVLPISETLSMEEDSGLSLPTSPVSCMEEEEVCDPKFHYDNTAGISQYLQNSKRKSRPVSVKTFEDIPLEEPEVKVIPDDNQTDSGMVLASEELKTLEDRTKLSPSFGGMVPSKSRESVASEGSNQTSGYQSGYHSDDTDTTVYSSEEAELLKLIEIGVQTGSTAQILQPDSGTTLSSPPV

The data set deals with KDR/Flk-1 (Homo sapiens, UniProt P35968). Conditions: read-out: KD value; cited from earlier work.

Regarding “vascular endothelial growth factor [VEGF]”, the dissociation constant (Kd) is 75 pM.
